Data published in patent US20250195530A1, “POLQ INHIBITORS” (ASTRAZENECA AB, priority 2022, published 2025).

By UniProt entry, the sequences of proteins in these tests, tags left out. Residues count along the entry.
UniProt O75417, 1780-2590: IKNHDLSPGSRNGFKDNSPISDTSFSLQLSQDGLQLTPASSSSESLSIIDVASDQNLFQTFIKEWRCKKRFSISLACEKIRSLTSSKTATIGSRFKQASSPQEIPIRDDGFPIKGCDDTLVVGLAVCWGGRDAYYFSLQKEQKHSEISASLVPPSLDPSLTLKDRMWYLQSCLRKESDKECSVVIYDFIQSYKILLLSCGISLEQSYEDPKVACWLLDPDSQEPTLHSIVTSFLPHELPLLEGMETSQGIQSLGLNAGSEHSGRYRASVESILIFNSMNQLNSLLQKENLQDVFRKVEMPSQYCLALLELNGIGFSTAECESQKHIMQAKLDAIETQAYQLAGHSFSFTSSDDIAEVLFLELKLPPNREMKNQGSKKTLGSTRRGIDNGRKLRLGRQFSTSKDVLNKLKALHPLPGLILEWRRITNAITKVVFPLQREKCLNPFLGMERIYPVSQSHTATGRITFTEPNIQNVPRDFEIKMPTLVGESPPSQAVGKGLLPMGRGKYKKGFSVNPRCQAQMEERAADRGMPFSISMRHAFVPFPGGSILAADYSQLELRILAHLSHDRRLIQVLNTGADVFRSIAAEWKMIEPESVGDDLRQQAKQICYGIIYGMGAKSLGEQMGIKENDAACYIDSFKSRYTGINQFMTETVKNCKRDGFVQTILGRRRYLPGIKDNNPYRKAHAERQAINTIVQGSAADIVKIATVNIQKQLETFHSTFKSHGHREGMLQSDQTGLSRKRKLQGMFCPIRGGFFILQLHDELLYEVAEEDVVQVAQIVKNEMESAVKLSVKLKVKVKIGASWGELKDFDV

Molecular target: isolated polymerase domain (I1780-V2590) of DNA polymerase theta (Polθ) (Homo sapiens (Human), UniProt O75417)
Experiment: biochemical

Row | Structure (SMILES) | IC50 [nM]
1 | COc1ccc(Cl)cc1Cn1c(-c2cccc(OCCOCC(=O)O)c2Cl)nc2c(OC3(C)CC3)ncnc21 [Example U52, 2-(2-(2-chloro-3-(9-(5-chloro-2-methoxybenzyl)-6-(1-methylcyclopropoxy)-9H-purin-8-yl)phenoxy)ethoxy)acetic acid] | 7.94
2 | Cc1ccnc(Cn2c(-c3ccc(OC4CC5(CNC5)C4)cc3Cl)nc3c(OC4(C)CC4)ncnc32)c1 [Example T457, 8-(4-((2-azaspiro[3.3]heptan-6-yl)oxy)-2-chlorophenyl)-6-(1-methylcyclopropoxy)-9-((4-methylpyridin-2-yl)methyl)-9H-purine] | 3.98
3 | COc1ccc(Cn2c(-c3ccc(CC(N)=O)cc3Cl)nc3c(OC4(C)CC4)ncnc32)cc1 [Example T106, 2-(3-chloro-4-(9-(4-methoxybenzyl)-6-(1-methylcyclopropoxy)-9H-purin-8-yl)phenyl)acetamide] | 15.8
4 | CC1(Oc2ncnc3c2nc(-c2cccc(OCCCCC(=O)O)c2Cl)n3Cc2cccc(Cl)c2)CC1 [Example T292, 5-(2-chloro-3-(9-(3-chlorobenzyl)-6-(1-methylcyclopropoxy)-9H-purin-8-yl)phenoxy)pentanoic acid] | 5.01
5 | CC1NCCN(CCOc2ccc(-c3nc4c(OC5(C)CC5)ncnc4n3Cc3ccccc3)c(Cl)c2)C1=O (single isomer, unassigned; isomer 1) [Example R13, 1-(2-(4-(9-benzyl-6-(1-methylcyclopropoxy)-9H-purin-8-yl)-3-chlorophenoxy)ethyl)-3-methylpiperazin-2-one (Isomer 1)] | 2.51
6 | COc1ccc(Cl)cc1Cn1c(-c2ccc(OCCC(C)(C)C(=O)O)cc2Cl)nc2c(OC3(C)CC3)ncnc21 [Example U31, 4-(3-chloro-4-(9-(5-chloro-2-methoxybenzyl)-6-(1-methylcyclopropoxy)-9H-purin-8-yl)phenoxy)-2,2-dimethylbutanoic acid] | 7.94
7 | CNC(=O)C1CN(c2ccc(-c3nc4c(OC5(C)CC5)ncnc4n3Cc3cc(C)ccn3)c(Cl)c2)C1 [Example T341, 1-(3-chloro-4-(6-(1-methylcyclopropoxy)-9-((4-methylpyridin-2-yl)methyl)-9H-purin-8-yl)phenyl)-N-methylazetidine-3-carboxamide] | 6.31
8 | Cc1ccnc(Cn2c(-c3ccc(C(=O)N(C)C4COC4)cc3Cl)nc3c(OC4(C)CC4)ncnc32)c1 [Example T320, 3-chloro-N-methyl-4-(6-(1-methylcyclopropoxy)-9-((4-methylpyridin-2-yl)methyl)-9H-purin-8-yl)-N-(oxetan-3-yl)benzamide] | 25.1
9 | COc1cnnc(Cn2c(-c3ccc(CC(N)=O)cc3Cl)nc3c(OC4(C)CC4)ncnc32)c1 [Example T22, 2-(3-chloro-4-(9-((5-methoxypyridazin-3-yl)methyl)-6-(1-methylcyclopropoxy)-9H-purin-8-yl)phenyl)acetamide] | 631
10 | Cc1ccnc(Cn2c(-c3ccc(CC(=O)N4CC[C@](C)(O)C4)cc3Cl)nc3c(OC4(C)CC4)ncnc32)c1 [Example T575, (S)-2-(3-chloro-4-(6-(1-methylcyclopropoxy)-9-((4-methylpyridin-2-yl)methyl)-9H-purin-8-yl)phenyl)-1-(3-hydroxy-3-methylpyrrolidin-1-yl)ethan-1-one] | 6.31
11 | CNC(=O)[C@H]1CCN(c2ccc(-c3nc4c(OC5(C)CC5)ncnc4n3Cc3cc(C)ccn3)c(Cl)c2)C1 [Example T497, (S)-1-(3-chloro-4-(6-(1-methylcyclopropoxy)-9-((4-methylpyridin-2-yl)methyl)-9H-purin-8-yl)phenyl)-N-methylpyrrolidine-3-carboxamide] | 6.31
12 | Cc1ccnc(Cn2c(-c3ccc(C(=O)N4C[C@@H](O)[C@H](F)C4)cc3Cl)nc3c(OC4(C)CC4)ncnc32)c1 [Example T282, (3-chloro-4-(6-(1-methylcyclopropoxy)-9-((4-methylpyridin-2-yl)methyl)-9H-purin-8-yl)phenyl)((3R,4R)-3-fluoro-4-hydroxypyrrolidin-1-yl)methanone] | 39.8
13 | C[C@H](COc1cccc(-c2nc3c(OC4(C)CC4)ncnc3n2Cc2cccc(Cl)c2)c1Cl)C(=O)O [Example T159, (R)-3-(2-chloro-3-(9-(3-chlorobenzyl)-6-(1-methylcyclopropoxy)-9H-purin-8-yl)phenoxy)-2-methylpropanoic acid] | 6.31
14 | Cc1ccnc(Cn2c(-c3ccc(OCCN4CCN(C)CC4)cc3Cl)nc3c(OC(C)(C)C)nccc32)c1 [Example T610, 4-(tert-butoxy)-2-(2-chloro-4-(2-(4-methylpiperazin-1-yl)ethoxy)phenyl)-1-((4-methylpyridin-2-yl)methyl)-1H-imidazo[4,5-c]pyridine] | 200
15 | Cc1ccnc(Cn2c(-c3ccc(C(=O)N[C@@H]4CCOC4)cc3Cl)nc3c(OC4(C)CC4)ncnc32)c1 [Example T316, (R)-3-chloro-4-(6-(1-methylcyclopropoxy)-9-((4-methylpyridin-2-yl)methyl)-9H-purin-8-yl)-N-(tetrahydrofuran-3-yl)benzamide] | 12.6
16 | CC(CCOc1ccc(-c2nc3c(OC4(C)CC4)ncnc3n2Cc2ccccc2F)c(Cl)c1)C(=O)O (racemic) [Example U5, 4-(3-chloro-4-(9-(2-fluorobenzyl)-6-(1-methylcyclopropoxy)-9H-purin-8-yl)phenoxy)-2-methylbutanoic acid] | 6.31

Row | Structure (SMILES) | IC50 [nM]
17 | Cc1cnc(Cn2c(-c3ccc(OC4CC5(CNC5)C4)cc3Cl)nc3c(OC4(C)CC4)ncnc32)s1 [Example T215, 2-((8-(4-((2-azaspiro[3.3]heptan-6-yl)oxy)-2-chlorophenyl)-6-(1-methylcyclopropoxy)-9H-purin-9-yl)methyl)-5-methylthiazole] | 7.94
18 | CC1(Oc2ncnc3c2nc(-c2ccc(OCCC(C)(C)C(=O)O)cc2Cl)n3Cc2cc(Cl)ccc2F)CC1 [Example U46, 4-(3-chloro-4-(9-(5-chloro-2-fluorobenzyl)-6-(1-methylcyclopropoxy)-9H-purin-8-yl)phenoxy)-2,2-dimethylbutanoic acid] | 7.94
19 | CC1(Oc2ncnc3c2nc(-c2cccc(OCC(C)(C)C(=O)O)c2Cl)n3Cc2cccc(Cl)c2)CC1 [Example T298, 3-(2-chloro-3-(9-(3-chlorobenzyl)-6-(1-methylcyclopropoxy)-9H-purin-8-yl)phenoxy)-2,2-dimethylpropanoic acid] | 3.16
20 | CC(COc1cccc(-c2nc3c(OC4(C)CC4)ncnc3n2Cc2cccc(Cl)c2)c1Cl)CC(=O)O (single isomer, unassigned) [Example T299, 4-(2-chloro-3-(9-(3-chlorobenzyl)-6-(1-methylcyclopropoxy)-9H-purin-8-yl)phenoxy)-3-methylbutanoic acid] | 7.94
21 | CC(CCOc1ccc(-c2nc3c(OC4(C)CC4)ncnc3n2Cc2cc(Cl)ccc2F)c(Cl)c1)C(=O)O (racemic) [Example T268, 4-(3-chloro-4-(9-(5-chloro-2-fluorobenzyl)-6-(1-methylcyclopropoxy)-9H-purin-8-yl)phenoxy)-2-methylbutanoic acid] | 6.31
22 | Cc1ccnc(Cn2c(-c3ccc(C(=O)NC4CC(F)C4)cc3Cl)nc3c(OC4(C)CC4)ncnc32)c1 (stereo not shown) [Example T280, 3-chloro-N-(3-fluorocyclobutyl)-4-(6-(1-methylcyclopropoxy)-9-((4-methylpyridin-2-yl)methyl)-9H-purin-8-yl)benzamide] | 15.8
23 | CC(CCOc1ccc(-c2nc3c(OC4(C)CC4)ncnc3n2Cc2c(F)cccc2F)c(Cl)c1)C(=O)O (single isomer, unassigned) [Example T263, 4-(3-chloro-4-(9-(2,6-difluorobenzyl)-6-(1-methylcyclopropoxy)-9H-purin-8-yl)phenoxy)-2-methylbutanoic acid] | 6.31
24 | Cc1cnc(Cn2c(-c3ccc(OC4CCN(C)CC4)cc3Cl)nc3c(OC4(C)CC4)ncnc32)s1 [Example T241, 2-((8-(2-chloro-4-((1-methylpiperidin-4-yl)oxy)phenyl)-6-(1-methylcyclopropoxy)-9H-purin-9-yl)methyl)-5-methylthiazole] | 3.98
25 | CC1(Oc2ncnc3c2nc(-c2ccc(CC(N)=O)cc2Cl)n3Cc2cncc(C#N)c2)CC1 [Example T39, 2-(3-chloro-4-(9-((5-cyanopyridin-3-yl)methyl)-6-(1-methylcyclopropoxy)-9H-purin-8-yl)phenyl)acetamide] | 50.1
26 | COc1ccc(Cn2c(-c3ccc(OCCN4CCNCC4)cc3Cl)nc3c(OC4(C)CC4)ncnc32)nc1 [Example T532, 8-(2-chloro-4-(2-(piperazin-1-yl)ethoxy)phenyl)-9-((5-methoxypyridin-2-yl)methyl)-6-(1-methylcyclopropoxy)-9H-purine] | 39.8
27 | Cc1ccnc(Cn2c(-c3ccc(OC[C@H]4CCCN4)cc3Cl)nc3c(OC4(C)CC4)ncnc32)c1 [Example T356, (R)-8-(2-chloro-4-(pyrrolidin-2-ylmethoxy)phenyl)-6-(1-methylcyclopropoxy)-9-((4-methylpyridin-2-yl)methyl)-9H-purine] | 3.98
28 | CC(CCCOc1ccc(-c2nc3c(OC4(C)CC4)ncnc3n2Cc2cccc(Cl)c2)c(Cl)c1)C(=O)O (single isomer, unassigned) [Example T438, 5-(3-chloro-4-(9-(3-chlorobenzyl)-6-(1-methylcyclopropoxy)-9H-purin-8-yl)phenoxy)-2-methylpentanoic acid] | 3.16
29 | CC1(Oc2ncnc3c2nc(-c2ccc(CC(N)=O)cc2Cl)n3Cc2noc(C(C)(C)C)n2)CC1 [Example T71, 2-(4-(9-((5-(tert-butyl)-1,2,4-oxadiazol-3-yl)methyl)-6-(1-methylcyclopropoxy)-9H-purin-8-yl)-3-chlorophenyl)acetamide] | 100
30 | Cc1ccnc(Cn2c(-c3ccc(CCC(=O)N(C)C)cc3Cl)nc3c(OC4(C)CC4)ncnc32)c1 [Example T358, 3-(3-chloro-4-(6-(1-methylcyclopropoxy)-9-((4-methylpyridin-2-yl)methyl)-9H-purin-8-yl)phenyl)-N,N-dimethylpropanamide] | 6.31
31 | CC(CCOc1ccc(-c2nc3c(OC4(C)CC4)ncnc3n2Cc2cccc(C(C)(F)F)c2)c(Cl)c1)C(=O)O (racemic) [Example T544, 4-(3-chloro-4-(9-(3-(1,1-difluoroethyl)benzyl)-6-(1-methylcyclopropoxy)-9H-purin-8-yl)phenoxy)-2-methylbutanoic acid] | 2.51
